The values below come from patent US11179348B2, “Combination comprising pterostilbene for the treatment of cancer” (FUNDACIÓN UNIVERSIDAD CATÓLICA DE VALENCIA SAN VICENTE …, priority 2015, dated 2021).

For this data set, the system named is A2058 cells isolated from tumor-bearing mice. As to the kind of experiment: Chemosensitization of cultured A2058 cells isolated from xenografts. Type of data set: cell-based, human. The following applies: isolated A2058 cells without in vivo Pter treatment; culture time 72 h. On the procedure: FIG. 5. Chemosensitization effect of GSH depletion (A) or sod1-AS (B) in melanoma cells isolated from Pter-treated mice. Melanoma cells were cultured as in FIG. 1C. PAC.PBP (100 ng/ml) was added to the culture flasks 24 h after seeding. DEM (0.1 mM) was added 6 h later, whereas sod1-AS (10 mM) were added 12 h after seeding [complexation with lipofectamine 2000 (Invitrogen) was used to facilitate sod1-AS uptake by the cells]. Data are mean values±SD for 5-6 different experiments (*p<0.01, comparing all experimental conditions vs controls).
FIGS. 18-25. Effect of piperlongumine and I-BET762, as GSH depleting and chemosensitizing agents, in in vitro growing human melanoma, pancreatic, breast, lung, liver, prostate, ovarian, and colorectal cancer cells. Cancer cells, isolated from Pter-treated tumor-bearing mice, were cultured as indicated under Methods. […]
Human A2058, MeWo and MelJuso melanoma cells, and mouse AtT-20 pituitary corticotroph tumor cells were from the American Type Culture Collection (ATCC). […] Cell numbers were determined using a Coulter Counter (Coulter Electronic Inc., Miami, Fla.). […] Cellular viability was assessed as previously reported (Mena, S. et al. Clin Cancer Res 13, 2658-2666 (2007)), by measuring trypan blue exclusion and leakage of lactate dehydrogenase activity. […]
In general terms: In xenograft studies the graft and the host belong to different species.

Regarding Diethylmaleate [DEM], the Cell viability is 96 ± 2%.
